Antibody variant affinities, Ab-14 light chain, assay 1

Reference: Engelhart et al. 2022, doi:10.1038/s41597-022-01779-4. File: FLAb, binding data.

Antigen: PDVDLGDISGINAS, a 14-residue peptide of the SARS-CoV-2 spike HR2 region.

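The parent was found by panning a naive human phage display library on the peptide. Library AAYL50 holds single substitutions and randomly drawn double and triple substitutions in the CDRs. AlphaSeq pools MATa yeast showing the antibodies with MATalpha yeast showing the peptide. Binding brings cells together so that they mate, and sequencing counts the barcode pairs among the diploids. Each replicate has its own calibration line, from reference interactions of the BCL2 family. Each pool was mated in three replicate cultures.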

Parent scFv Ab-14: VH joined to VL by a 15-residue (Gly4Ser)3 linker. Changes lie in the light chain CDRs alone.
VH: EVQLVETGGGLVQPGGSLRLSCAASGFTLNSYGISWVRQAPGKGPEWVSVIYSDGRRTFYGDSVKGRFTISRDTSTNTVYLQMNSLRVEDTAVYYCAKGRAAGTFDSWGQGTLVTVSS
VL: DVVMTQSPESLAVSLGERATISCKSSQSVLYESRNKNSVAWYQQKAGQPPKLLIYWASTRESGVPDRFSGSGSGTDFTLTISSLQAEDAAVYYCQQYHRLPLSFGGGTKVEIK

Sequences are complete VL domains.
This list gathers variants with a substitution at S103 (VL, numbered from residue 1).
Numbers give log10(Kd / nM), so 0 is 1 nM and 3 is 1 µM. Smaller is tighter.
Averages over replicates are reported, and they cover detected replicates only.
A pair that was not seen in any replicate is written "nd"; this usually means weak binding, but a binder can also be missed.
Entries are sorted by rising average, undetected variants last.

VL	mean log10 Kd (nM)	seen in
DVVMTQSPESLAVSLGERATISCKHSQSVLNESRNKNSVAWYQQKAGQPPKLLIYWASTRESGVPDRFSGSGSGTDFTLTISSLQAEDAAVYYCQQYHRLPLFFGGGTKVEIK	0.65	3/3
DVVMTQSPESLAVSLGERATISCKSSSSHLYESRNKNSVAWYQQKAGQPPKLLIYWASTRESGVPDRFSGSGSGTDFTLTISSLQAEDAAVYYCQQYHRLPLVFGGGTKVEIK	0.78	3/3
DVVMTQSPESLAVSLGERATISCKSSQSVLYESFNKNSVAWYQQKAGQPPKLLIYWASTRESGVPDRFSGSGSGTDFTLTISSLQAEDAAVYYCQIYHRLPLVFGGGTKVEIK	1.09	3/3
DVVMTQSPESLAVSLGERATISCKSSQQVLYESRNKNSVAWYQQKAGQPPKLLIYWASTRYSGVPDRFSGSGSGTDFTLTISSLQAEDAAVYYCQQYHRLPLEFGGGTKVEIK	1.20	3/3
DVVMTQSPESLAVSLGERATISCKSSLSVLYESRNKNSVAWYQQKAGQPPKLLIYWASTRTSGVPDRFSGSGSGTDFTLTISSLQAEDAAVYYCQQYHRLPLMFGGGTKVEIK	1.22	3/3
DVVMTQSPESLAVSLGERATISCKSSRSVLYESRNKNSVAWYQQKAGQPPKLLIYWASTRESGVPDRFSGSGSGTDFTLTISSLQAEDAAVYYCQQYHVLPLLFGGGTKVEIK	1.99	3/3
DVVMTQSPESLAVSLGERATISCKSSQSVLYENRNKNSVAWYQQKAGQPPKLLIYWASTRESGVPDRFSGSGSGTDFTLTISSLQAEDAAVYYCQQYHVLPLIFGGGTKVEIK	2.56	3/3
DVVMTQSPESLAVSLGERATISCKSSQSVLYESRNKNSVAWYQQKAGQPPKLLIYWASTRSSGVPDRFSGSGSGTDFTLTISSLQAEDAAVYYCAQYHRLPLFFGGGTKVEIK	2.66	3/3
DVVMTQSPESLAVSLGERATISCKSSQMVLYESRNKNSVAWYQQKAGQPPKLLIYWASTREKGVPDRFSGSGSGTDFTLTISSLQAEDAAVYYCQQYHRLPLFFGGGTKVEIK	2.93	3/3
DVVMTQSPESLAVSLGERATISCYSSQSVLYESRNKNSVAWYQQKAGQPPKLLIYWASTRESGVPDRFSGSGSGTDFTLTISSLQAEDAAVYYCMQYHRLPLYFGGGTKVEIK	3.62	1/3
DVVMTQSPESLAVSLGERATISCKSSQSVLYEARNKNSVAWYQQKAGQPPKLLIYWASTRESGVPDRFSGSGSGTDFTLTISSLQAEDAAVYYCQQYHRLPRHFGGGTKVEIK	3.70	2/3
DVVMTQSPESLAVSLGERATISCKSSQSVLYESRNKNSVAWYQQKAGQPPKLLIYWASTRESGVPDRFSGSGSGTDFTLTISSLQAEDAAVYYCQQIHRLPEFFGGGTKVEIK	3.78	2/3
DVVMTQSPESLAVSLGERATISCKSSQSVLYESFNKNSVAWYQQKAGQPPKLLIYWASTRESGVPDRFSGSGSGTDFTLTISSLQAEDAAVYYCQQYHRLPLFFGGGTKVEIK	3.94	1/3
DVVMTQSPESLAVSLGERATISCKSSQSVLYESRNKNSVAWYQQKAGQPPKLLIYWASTCESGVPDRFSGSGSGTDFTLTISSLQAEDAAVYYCQQYHRRPLRFGGGTKVEIK	3.94	3/3
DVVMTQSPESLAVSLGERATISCKSSQSVLYESRNKNSVAWYQQKAGQPPKLLIYWASTRESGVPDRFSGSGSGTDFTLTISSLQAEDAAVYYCQQYHRLPLRFGGGTKVEIK	3.95	3/3
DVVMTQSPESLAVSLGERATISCKSSQSVIYESRNKRSVAWYQQKAGQPPKLLIYWASTRESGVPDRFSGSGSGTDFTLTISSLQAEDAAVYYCQQYHRLPLLFGGGTKVEIK	3.99	2/3
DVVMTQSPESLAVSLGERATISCKSSQSVLYESRLKNSVAWYQQKAGQPPKLLIYWASTRESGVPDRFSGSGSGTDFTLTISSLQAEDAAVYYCQQYHRLPLKFGGGTKVEIK	4.06	1/3
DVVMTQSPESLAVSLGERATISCKSSQSVLYESRNKNSQAWYQQKAGQPPKLLIYWASTVESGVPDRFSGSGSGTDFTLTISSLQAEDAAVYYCQQYHRLPLPFGGGTKVEIK	4.38	1/3
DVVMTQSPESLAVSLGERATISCKSSQSVLYESRNKNSVAWYQQKAGQPPKLLIYCASTKESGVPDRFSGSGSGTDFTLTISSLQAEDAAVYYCQQYHRLPLRFGGGTKVEIK	4.74	1/3
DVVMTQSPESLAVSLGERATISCKSSQSVPYESRNKNSVAWYQQKAGQPPKLLIYWASTRESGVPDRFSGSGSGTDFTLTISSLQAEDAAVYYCQQYHRLWLYFGGGTKVEIK	nd	0/3
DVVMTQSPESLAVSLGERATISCFSSQSVYYESRNKNSVAWYQQKAGQPPKLLIYWASTRESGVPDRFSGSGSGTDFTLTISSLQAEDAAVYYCQQYHRLPLCFGGGTKVEIK	nd	0/3
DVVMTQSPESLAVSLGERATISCKSSQNVLYESRNKNSVAWYQQKAGQPPKLLIYWASTRESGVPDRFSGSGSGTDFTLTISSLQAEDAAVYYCKQYHRLPLLFGGGTKVEIK	nd	0/3
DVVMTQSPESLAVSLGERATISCKSSQSVLYWSRNKNSVAWYQQKAGQPPKLLIYWASTRESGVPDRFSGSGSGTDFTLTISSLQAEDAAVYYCQQYHRHPLLFGGGTKVEIK	nd	0/3
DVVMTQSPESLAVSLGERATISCKSSKSVLYESRNKNSGAWYQQKAGQPPKLLIYWASTRESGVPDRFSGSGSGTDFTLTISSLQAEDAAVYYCQQYHRLPLEFGGGTKVEIK	nd	0/3
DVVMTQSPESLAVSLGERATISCKSSQDPLYESRNKNSVAWYQQKAGQPPKLLIYWASTRESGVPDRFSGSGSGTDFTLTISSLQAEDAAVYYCQQYHRLPLNFGGGTKVEIK	nd	0/3

Again, the first 2 entries without any signal:

VL	mean log10 Kd (nM)	seen in
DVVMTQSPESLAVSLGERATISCKSSQSVPYESRNKNSVAWYQQKAGQPPKLLIYWASTRESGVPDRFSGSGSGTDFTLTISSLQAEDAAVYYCQQYHRLWLYFGGGTKVEIK	nd	0/3
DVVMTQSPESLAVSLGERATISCFSSQSVYYESRNKNSVAWYQQKAGQPPKLLIYWASTRESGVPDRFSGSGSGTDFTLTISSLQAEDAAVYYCQQYHRLPLCFGGGTKVEIK	nd	0/3

Background: pairings of library AAYL50 with three empty control strains gave a value in 18% of cases (median 4.19, 5th percentile 2.99). Values in that range, when seen in few replicates, are hard to tell from nonspecific mating.